According to patent US20050148661A1 (priority 2002, published 2005):

Assay: clinical study: prevention of the neurotoxicity of oxaliplatin by calcium and magnesium infusion (103 treatments)
Conditions: group of patients without calcium or magnesium

N[C@@H]1CCCC[C@H]1N.O=C([O-])C(=O)[O-].[Pt+2] (relative stereo) [oxaliplatin, 1,2-diamine cyclohexane (trans-1)oxalatoplatinum]
discontinuations due to toxic causes: 40%
